Measured affinities in a library of Ab-14 light chain variants

Data: MIT Lincoln Laboratory AlphaSeq set, Li et al. 2023, doi:10.1038/s41467-023-39022-2, as distributed in FLAb.

Binding partner: SARS-CoV-2 spike HR2 peptide, sequence PDVDLGDISGINAS.

Each scFv is VH, a (GGGGS)3 linker, VL, as in the parent Ab-14, and differs from it in the CDRs of the light chain only.
VH: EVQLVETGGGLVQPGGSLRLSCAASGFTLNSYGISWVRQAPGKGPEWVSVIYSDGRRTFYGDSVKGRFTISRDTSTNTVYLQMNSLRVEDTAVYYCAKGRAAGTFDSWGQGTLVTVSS
VL: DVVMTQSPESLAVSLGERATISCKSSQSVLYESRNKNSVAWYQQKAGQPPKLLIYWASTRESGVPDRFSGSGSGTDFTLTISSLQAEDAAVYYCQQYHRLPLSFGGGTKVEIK

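Phage display of a naive human antibody library on the peptide gave the parent. The variants were designed computationally from a first round of random CDR variants and then made and measured. Their group label is 14L_GP_Gibbs (GP: Gaussian process model; Gibbs: Gibbs sampling; a sequence that several methods proposed may carry one label only). In AlphaSeq, yeast of one mating type display the scFv and yeast of the other type display the target. Binding brings cells together so that they mate, and sequencing counts the barcode pairs among the diploids. A regression on co-assayed BCL2-family reference pairs converts the normalised counts of each replicate to an apparent Kd. The assay was run in six technical replicates.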

Substitutions are numbered in sequence along the VL above, starting at 1 (not Kabat). Scale: log10 of Kd in nM, estimated from mating counts; low values are strong binders. An entry "ND" has no value in the source: the pair was not observed among the diploids in that replicate. This suggests poor binding but is not conclusive. The authors' rule: three or more of the six replicates give a measured affinity, fewer mean a poor binder.

| changes | log10 Kd, replicates | signal with controls |
|---|---|---|
| S25L/V29E/R34A/N35A/W56N/S58M/T59Q/E61M | 0.03 0.01 -0.21 -0.25 -0.23 -0.02 | 3/18 (3.65) |
| S25L/S26V/V29E/L30G/S38N/W56A/T59Q | 0.39 0.55 0.09 0.09 0.01 0.45 | 1/18 (2.99) |
| S25V/Q27P/L30Q/S33A/N35Q/K36F/W56E/S62Q | 1.07 0.70 0.55 0.68 0.82 0.87 | 1/18 (3.59) |
| S25V/Q27P/Y31G/E32W/S33M/W56N/E61R | 0.64 1.25 0.83 0.37 1.30 1.67 | 0/18 |
| Q27W/L30E/S33D/N35L/K36S/W56N/T59Q/S62W | 1.76 1.00 0.76 1.24 1.00 1.54 | 1/18 (1.38) |
| S25L/S26Q/V29E/S33E/K36S/S38A/W56N/T59L/S62L | 0.24 -0.33 -0.82 -0.85 -0.35 -0.19 | 0/18 |
| S25I/S28A/V29Q/W56Q/T59H/S62Q | 0.27 0.37 0.43 0.05 0.07 0.27 | 2/18 (3.21) |
| S25I/N35A/K36Q/W56E/E61C/S62D | -0.06 -0.21 -0.02 -0.39 -0.18 -0.01 | 1/18 (2.46) |
| S25F/L30D/S33D/N35Q/W56N/E61M | -0.27 -0.25 -0.23 -0.30 -0.36 -0.13 | 3/18 (3.18) |
| S25V/S26H/V29Q/N35Q/K36I/W56N/T59Q/E61C/S62D | 1.24 1.05 0.65 0.99 0.40 0.85 | 2/18 (1.65) |
| S25F/S26M/Q27G/V29M/K36E/W56N/T59Q | 0.42 0.74 0.49 0.35 0.50 0.70 | 4/18 (3.89) |
| S25L/L30E/S33E/N35D/W56D/S58Q/E61L | 0.55 0.05 0.45 0.25 0.21 0.28 | 0/18 |
| S25L/S26E/V29N/S33D/K36A/S38N/W56N/T59Q | -0.22 -0.21 -0.33 -0.34 -0.17 -0.22 | 3/18 (3.16) |
| S25V/S28G/V29F/S33E/N35Q/W56N | -0.03 -0.11 0.00 -0.18 0.03 0.08 | 1/18 (3.17) |
| S25L/S26M/Q27M/V29G/K36S/W56N/T59Y/S62Q | 0.17 -0.03 -0.06 -0.04 -0.27 0.09 | 0/18 |
| S25V/S26P/V29N/K36A/S38N/W56S/T59Q | -0.65 -0.57 -0.24 -0.68 -0.26 -0.35 | 1/18 (2.00) |
| S25L/Q27M/S28M/L30D/E32G/S33D/W56S | -0.44 -0.08 -0.36 -0.15 -0.41 -0.17 | 0/18 |
| S25V/S26W/Q27P/V29E/Y31G/E32L/S33E/W56Q | -0.36 -0.11 -0.61 -0.47 -0.37 -0.31 | 0/18 |
| S25M/Q27M/V29E/S33D/K36Q/W56S/T59Q/E61L | 0.23 -0.01 -0.03 -0.01 -0.05 0.10 | 0/18 |
| S25L/V29W/S33Q/K36P/W56N/T59K/E61L/S62L | 0.48 0.67 0.47 0.35 0.51 0.72 | 1/18 (3.50) |
| S25L/L30G/E32G/S33Q/W56E/E61M/S103Y | 0.79 0.34 0.36 0.42 0.63 0.69 | 0/18 |
| S25L/V29T/L30W/R34G/N35M/W56N/T59K/S62Q | 0.23 0.23 0.39 0.05 0.42 0.55 | 0/18 |
| S26A/V29D/Y31N/K36F/W56D | 0.11 0.13 0.10 -0.12 0.03 0.20 | 2/18 (2.07) |
| S25L/Q27T/V29S/N35M/K36A/S38N/W56A/S62E | 0.83 0.37 0.41 0.34 0.24 0.72 | 0/18 |
| S25V/S26M/K36V/S38N/W56N/A57G/S62L | -0.33 -0.49 -0.31 -0.75 -0.04 -0.14 | 0/18 |
| S25M/S26Q/Q27N/V29N/L30G/S38A/W56Q/E61M | 0.07 -0.10 -0.05 -0.30 -0.15 -0.04 | 2/18 (2.88) |
| S25L/S26E/Q27F/V29D/W56E | 1.35 1.42 1.68 2.78 1.58 1.81 | 1/18 (4.14) |
| S25L/S28G/V29W/Y31Q/K36A/S38N/W56N/T59R/S62Q | 0.29 0.13 0.06 0.08 0.06 0.09 | 1/18 (2.04) |
| S25H/V29E/S33E/K36D/W56Q/T59Q/Q96D | 1.12 1.33 1.13 1.17 1.41 1.50 | 1/18 (2.48) |
| S25L/S26Q/Q27N/V29M/K36D/W56D/T59K/S103F | 0.11 -0.27 -0.24 -0.23 -0.28 -0.06 | 1/18 (2.18) |
| S25V/S28E/V29D/L30P/Y31M/W56H/T59L | 0.20 0.24 -0.01 0.05 -0.03 0.17 | 0/18 |
| S25L/S28Q/V29D/L30E/W56Q/T59C/S62Q | -0.47 -0.50 -0.16 -0.37 -0.46 -0.12 | 0/18 |
| S25L/S26Q/Q27M/V29M/N35M/K36M/W56D/T59V | -0.22 -0.19 -0.43 -0.39 -0.24 -0.16 | 0/18 |
| S25V/V29Q/S33E/S38N/W56Q/T59D | 0.04 0.02 -0.04 -0.08 0.12 0.04 | 1/18 (3.68) |
| S25H/Q27P/V29E/L30E/N35D/W56H/E61C | 0.72 0.89 0.56 0.66 0.84 1.37 | 0/18 |
| K24V/S25L/S26Q/V29E/W56D/T59K/S62E | -0.61 -0.54 -0.57 -0.71 -0.60 -0.50 | 0/18 |
| S28E/V29Q/S33N/N35M/K36I/W56D/T59L | 0.17 -0.19 -0.03 -0.34 -0.21 0.33 | 0/18 |
| S25L/S26P/Q27N/V29S/S38Q/W56S/T59Q/S62M | 0.89 0.62 0.74 0.52 0.59 0.57 | 1/18 (3.00) |
| S25L/S26E/S28E/V29Y/E32G/S33K/W56Q/T59L | 0.65 0.47 0.40 0.36 0.55 0.83 | 0/18 |
| S25V/V29M/L30E/E32Q/S38N/W56N/S62Q/Q96S | 0.23 0.15 0.14 0.09 -0.07 0.24 | 0/18 |
| S25L/S26Q/S28Q/V29E/L30Q/K36W/W56N/T59D/E61Q | 0.64 0.96 0.23 0.60 0.91 0.74 | 2/18 (2.79) |
| S25V/Q27T/V29E/Y31E/T59L/S62E | ND ND ND -0.33 ND ND | 0/18 |
| S25L/S26E/V29T/W56N/T59Q/H98K | 0.11 -0.14 -0.11 -0.22 -0.10 0.03 | 1/18 (3.07) |
| S25I/V29F/Y31M/W56N/E61I/S62W | 0.46 0.23 0.79 0.14 0.43 0.34 | 2/18 (2.43) |
| S25L/S26D/V29Q/Y31L/N37Q/W56N/T59Q/E61C | 0.11 0.18 -0.01 -0.25 0.10 -0.03 | 2/18 (2.63) |
| S25L/S26E/S28E/V29Y/L30D/E32G/W56Q/T59L | 0.70 0.27 0.28 0.27 0.63 0.24 | 1/18 (1.76) |
| S25F/Q27G/V29Q/K36S/W56H/Q96D | -0.05 0.06 -0.21 0.04 0.01 0.31 | 1/18 (2.20) |
| S25M/V29M/N35A/K36F/W56N/T59Q | 0.37 0.21 0.26 0.33 0.24 0.44 | 2/18 (3.58) |
| S25L/V29M/N35V/S38N/W56D/S58H/T59Q/Q96M | -0.24 -0.09 -0.03 -0.21 0.09 -0.05 | 2/18 (2.76) |
| S25I/S26D/V29E/Y31E/S58T/T59V/S62V | 1.56 1.38 1.01 1.78 1.47 1.96 | 0/18 |

The last 3 entries again:

{"changes": "S25M/V29M/N35A/K36F/W56N/T59Q", "log10 Kd, replicates": "0.37 0.21 0.26 0.33 0.24 0.44", "signal with controls": "2/18 (3.58)"}
{"changes": "S25L/V29M/N35V/S38N/W56D/S58H/T59Q/Q96M", "log10 Kd, replicates": "-0.24 -0.09 -0.03 -0.21 0.09 -0.05", "signal with controls": "2/18 (2.76)"}
{"changes": "S25I/S26D/V29E/Y31E/S58T/T59V/S62V", "log10 Kd, replicates": "1.56 1.38 1.01 1.78 1.47 1.96", "signal with controls": "0/18"}

The parent sequence was in this pool as ten entries: three were never detected, three once, and four in most replicates, with averages from 0.34 to 2.37. Values of this round are not directly comparable with the first-round values of the same sequences. As a blank, each scFv also met three strains without target: over all light chain designs, 4% of these pairings were detected, typically at 2.64 and seldom below 1.59. Also given: how often the same scFv was detected with the empty control strains, with their mean in brackets.